Legend:
Human thrombin [1] = target: T1, Human thrombin (Homo sapiens, UniProt P00734)
Human thrombin [2] = target: T1, Human thrombin; assay: biochemical; conditions: read-out: % Inhibition Thrombin II at 100 μM

| SMILES | % Inhibition Thrombin II (30 µM) (Human thrombin [1]) | inhibition at 100 µM (Human thrombin [2]) |
| --- | --- | --- |
| NC1=NCCSc2cc(CNC(=O)Cn3c(-c4cccc(N)c4)c(Cl)nc(NC4CCC4)c3=O)ccc21 [Example 154] | 2% | – |
| N=C(N)c1ccc(S(=O)(=O)NCCn2c(-c3cccc(N)c3)c(Cl)nc(NC3CCC3)c2=O)cc1 [Example 137] | – | 4% |

— patent publication US6908919B2, “Substituted polycyclic aryl and heteroaryl pyrazinones useful for selective inhibition of the coagulation cascade” (Pharmacia Corporation, priority 1999, dated 2005)
